This data set relates to MyoF system (lung fibroblasts). The note with it: 10 μM (top concentration).

Regarding AZD4547 [reference compound], the “cytotoxicity in the MyoF system” value was “cytotoxic”.

The record behind these values is paper PMC10811212 (Frontiers in Oncology, 2024).
